Data as given in US20100210668A1, “COMPOSITION AND METHOD FOR TREATMENT OR PREVENTION OF BENIGN PROSTATIC HYPERPLASIA AND LOWER URINARY TRACT SYMPTOMS” (DONG-A PHARM. CO., LTD., priority 2007, published 2010).

Experiments:
[1] = tested on: health men; test: Safety Test 2: vital signs in supine position, Silodosin combination; format: in vivo, human; details: the values are: Systolic blood pressure mean
Method: 9 health men aged 19 to 50 years were divided into three groups according to randomization list, and administered by a) placebo and the pyrazolopyrimidinone of chemical formula (I) (Group A), b) placebo and Silodosin (Group B), and c) Silodosin and the pyrazolopyrimidinone of formula (I) (Group C) to evaluate the effect of the combinational administration of the pyrazolopyrimidinone of formula (I) and Silodosin on the safety.
The safety evaluation was performed by observing vital signs (diastolic blood pressure, pulse rate, body temperature), clinical laboratory testing, electrocardiogram, adverse reactions such as subjective symptom and objective symptom. In addition, the effect of drug-drug interaction on pharmacokinetics of the pyrazolopyrimidinone was observed.

[2] = tested on: health men; test: Safety Test 1: vital signs in supine position, Tamsulosin combination; format: in vivo, human
Source text: 28 health men aged 19 to 50 years were divided into four groups according to randomization list, and administered by a) placebo and placebo (Group A), b) placebo and the pyrazolopyrimidinone of chemical formula (I) (Group B), c) Tamsulosin and placebo (Group C) and d) Tamsulosin and the pyrazolopyrimidinone of chemical formula (I) (Group D) to evaluate the effect of the combinational administration of the pyrazolopyrimidinone of chemical formula (I) and Tamsulosin on the safety.
The safety evaluation was performed by observing vital signs (diastolic blood pressure, pulse rate, body temperature), clinical laboratory testing, electrocardiogram, adverse reactions such as subjective symptom and objective symptom. In addition, the effect of drug interaction on pharmacokinetics of the pyrazolopyrimidinone was observed.

SMILES | Diastolic blood pressure mean [1] [mmHg] | Diastolic blood pressure mean [2]
CCCOc1ccc(S(=O)(=O)NCCC2CCCN2C)cc1-c1nc2c(CCC)nn(C)c2c(=O)[nH]1 (stereo not drawn) [Compound of formula (I), 5-[2-propyloxy-5-(1-methyl-2-pyrolidinylethylamidosulphonyl)phenyl]-1-methyl-propyl-1,6-dihydro-7H-pyrazolo (4,3-d)pyrimidin-7-one] | 113 | 112.4
CCOc1ccccc1OCCN[C@H](C)Cc1ccc(OC)c(S(N)(=O)=O)c1 [Tamsulosin, (R)-5-(2-(2-(2-ethoxyphenoxy)ethylamino)propyl)-2-methoxy benzensulfonamide, reference compound] |  | 112.3
